Experimental data from US12145923B2, “Tetrahydroisoquinoline compound, preparation method therefor, pharmaceutical composition containing same, and use thereof” (SHANGHAI INSTITUTE OF MATERIA MEDICA, CHINESE ACADEMY OF …, priority 2018, dated 2024).

Tested on: RAW 264.7 cells
Test: Cytotoxicity on RAW 264.7 cells (CCK-8 method)
Assay type: cell-based, mouse

Row | Compound | Cell survival rate/% (RAW 264.7, 0.5 μM) | Cell survival rate/% (RAW 264.7, 5 μM) | Cell survival rate/% (RAW 264.7, 50 μM)
1 | COc1cc2c(cc1OC)[C@@H](Cc1c[nH]c3ccccc13)N(C=O)CC2 [(R)-C9, (R)-1-((1H-indol-3-yl)methyl)-6,7-dimethoxy-3,4-dihydroisoquinoline-2(1H)-formaldehyde] | 112.8% | 98.4% | 83.9%
2 | COc1cc2c(cc1OC)[C@H](Cc1c[nH]c3ccccc13)N(C=O)CC2 [(S)-C9, (S)-1-((1H-indol-3-yl)methyl)-6,7-dimethoxy-3,4-dihydroisoquinoline-2(1H)-formaldehyde] | 80.9% | 77.8% | 77.9%
3 | COc1cc2c(cc1OC)C(Cc1c[nH]c3ccccc13)N(C=O)CC2 (stereo not drawn) [Compound C9, 1-((1H-indol-3-yl)methyl)-6,7-dimethoxy-3,4-dihydroisoquinoline-2(1H)-formaldehyde] | 92.5% | 88.4% | 112.6%
